Data on one molecule can be found in ChEMBL document CHEMBL3734696, “Discovery of novel 5-fluoro-N(2),N(4)-diphenylpyrimidine-2,4-diamines as potent inhibitors against CDK2 and CDK9” (Medchemcomm, 2015).

Chains of the proteins cited; added tags and fusions are not shown.
UniProt P50750, whole entry: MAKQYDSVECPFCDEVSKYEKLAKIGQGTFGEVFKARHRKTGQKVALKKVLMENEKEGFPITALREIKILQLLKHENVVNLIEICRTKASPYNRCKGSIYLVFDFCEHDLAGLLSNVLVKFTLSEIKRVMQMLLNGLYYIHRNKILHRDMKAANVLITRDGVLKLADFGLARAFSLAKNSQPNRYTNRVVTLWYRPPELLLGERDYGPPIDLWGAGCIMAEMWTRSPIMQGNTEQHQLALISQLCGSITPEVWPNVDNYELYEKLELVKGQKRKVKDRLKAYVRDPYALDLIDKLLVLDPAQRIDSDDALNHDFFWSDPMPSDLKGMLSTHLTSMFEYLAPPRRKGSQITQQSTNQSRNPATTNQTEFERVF

One test concerns the target CDK9/cyclin T1 (Homo sapiens, UniProt P50750). Kind of test: Inhibition of CDK9/Cyclin-T1 (unknown origin) using UlightCFFKNIVTPRTPPPSQGK-amide substrate after 90 mins by […]. Type of test: protein-complex assay.
A further test relates to A549. Kind of test: Antiproliferative activity against human A549 cells after 3 days by SRB method. The format is functional. The settings on record: A549, 72 h. The procedure, abridged:
(§1)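 Cell lines kept in RPMI-1640 with 25 mM HEPES, 0.25% sodium bicarbonate, 10% FBS and kanamycin. Freshly trypsinized cells seeded at 1500–7500 per well with compound added from DMSO-diluted stock. After 3 days, attached cells fixed with cold 50% TCA, stained with 0.4% SRB, and bound dye solubilized. Absorbance read at 562 nm. Value is the mean of three independent determinations.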

Test [1] can be described thus: Antiproliferative activity against human DU145 cells after 3 days by SRB method. The format is functional. Particulars: DU-145, 72 h. A digest of the protocol: as §1
In general terms: The SRB assay estimates cell density from bound dye.

Test [2] can be described thus: Antiproliferative activity against human KBVIN cells after 3 days by SRB method. Type of test: functional. Particulars: 72 h. A digest of the protocol: as §1
Test [3] has as its target Cyclin-dependent kinase 2/cyclin E1 (Homo sapiens, UniProt P24941). Kind of test: Inhibition of CDK2/cyclin E1 (unknown origin) expressed in Sf9 insect cells using UlightCFFKNIVTPRTPPPSQGK-amide substrate after 15 mins by […].

Molecules are shown by their SMILES.

Consider `CN(C)CC(=O)Nc1cccc(Nc2ncc(F)c(Nc3ccc(F)cc3)n2)c1`, for which the IC50 against CDK9/cyclin T1 stood at 0.78 µM; in test [3], 1.71 µM. The results for the GI50 (in the test on A549; in test [1]; in test [2]) were 1.18 µM, 1.21 µM and 1.81 µM, respectively.

The term IC50 denotes the concentration that inhibits the measured activity by half. Read a high IC50 as weaker potency. One may read the GI50 as the concentration at which growth is held to half of that of the control. High values mean lower sensitivity of the cells, low ones greater sensitivity of the cells.
